{"source": "paper PMC4945142", "about": "(Molecular Biology of the Cell, 2016)", "biological_target": "γ-tubulin small complex (γTuSC) with γ-tubulin^S48C/S153C, Spc97-YFP and Spc98-CFP (budding yeast) (UniProt P53378)", "assay": "FRET or BRET"}
{"substance": "E. coli-expressed GST-Spc110p^1-220 (from UniProt P32380 1-220) (domain or fragment)", "values": [{"measurement": "Kd", "result": 370, "unit": "nM"}]}
